Laboratory results reported in ChEMBL document CHEMBL3763110, “A potent and selective inhibitor targeting human and murine 12/15-LOX” (Bioorg Med Chem, 2016).

Assays:
Homo sapiens [1] = species on record: Homo sapiens; assay: Selectivity ratio of IC50 for human 5-LOX to IC50 for N-terminal His6-tagged human 12/15-LOX
Homo sapiens [2] = species on record: Homo sapiens; assay: Selectivity ratio of IC50 for N-terminal His6-tagged human 12-LOX to IC50 for N-terminal His6-tagged human 12/15-LOX

Cc1ccc(O)c(-c2cc(-c3ccccc3C)[nH]n2)c1 was tested, and the Ratio IC50 (Homo sapiens [1]) was over 30 and the Ratio IC50 (Homo sapiens [2]) was 15.
